# AlphaSeq binding of Ab-14 light chain variants to a spike HR2 peptide

From the AlphaSeq antibody data of Engelhart et al. 2022 (doi:10.1038/s41597-022-01779-4), copy in the FLAb collection.

The target is the same throughout: PDVDLGDISGINAS, from the HR2 region of SARS-CoV-2 spike.

Ab-14 is the parent antibody, in scFv form: VH, then a (GGGGS)3 linker, then VL. The heavy chain is unchanged in all variants.
VH: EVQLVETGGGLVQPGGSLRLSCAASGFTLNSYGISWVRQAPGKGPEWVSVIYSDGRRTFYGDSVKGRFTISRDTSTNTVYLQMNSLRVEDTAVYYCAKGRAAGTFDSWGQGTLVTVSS
VL: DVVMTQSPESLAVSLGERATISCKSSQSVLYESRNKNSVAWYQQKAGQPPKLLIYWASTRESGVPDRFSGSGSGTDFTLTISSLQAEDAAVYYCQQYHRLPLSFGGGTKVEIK

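AAYL50 was designed without a model: most single CDR substitutions and a random sample of double and triple ones. The assay is AlphaSeq: two haploid yeast populations carry antibody and antigen on their surface. Binding brings cells together so that they mate, and sequencing counts the barcode pairs among the diploids. Scores were corrected for input abundance and mapped to Kd with protein pairs of known affinity run in the same pool. Each pool was mated in three replicate cultures.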

Changes read parent residue, position, new residue, counted from the first residue of the VL shown. Scale: log10 of Kd in nM, estimated from mating counts; low values are strong binders. "nd" marks a missing value. The strain was present, yet no cells mated with the target were sequenced in that replicate, which points to weak or no binding. Three control strains display no target. For library AAYL50, 18% of the pairings with them gave a signal, with a median of 4.19 and one signal in twenty below 2.99, so weak values seen in few replicates may be background.

log10 Kd (nM) by replicate,changes
nd nd nd,L30F/A57L/S58W
nd nd 4.94,V29T/T59K/Y97S
4.63 3.80 5.35,A40L/Y97L/H98D
1.51 1.31 1.31,Y31S/K36R/A57Q
nd nd 4.13,V29I/A40P/E61H
2.13 2.01 1.94,S28P/S38H/E61C
nd nd 4.78,S28Y/V39G/R99H
1.89 2.55 2.18,K24V/N35P/Y97A
0.48 0.70 0.58,S25W/N35M/K36G
4.54 nd nd,S26Q/S38M/L102G
nd nd nd,A40T/T59P/Q96Y
1.37 1.37 1.63,L30V/E32N
nd nd nd,N37S/W56A/L100A
2.94 nd 1.63,L30C/E61T
1.79 4.21 2.63,S25N/Y31P/R99C
3.46 2.30 nd,N37G/E61N/L102M
nd nd nd,V29F/Q95S/Y97D
nd 4.78 nd,S33D/K36D/Y97A
1.01 1.30 1.17,V29S/T59F
5.08 3.78 nd,E32K/R34M/V39A
3.79 3.85 nd,S25I/L30I/L100R
3.72 4.79 nd,V29M/Y97T/L100W
1.57 1.62 1.80,S26H/Y31N/S33N
1.61 1.64 1.57,T59S/L100V/L102V
5.90 4.22 5.74,K24I/Y31Q/A57H
nd 5.30 3.91,W56P/S62H/R99P
nd nd nd,Q27P/L30D/Y97N
4.41 4.06 6.51,Q27G/N35L/L102H
3.85 5.69 6.46,K24G/S33G/R99Q
2.70 3.82 2.27,V39I/A40C/H98N
0.87 1.13 0.75,Q27T/S33P/H98E
nd nd nd,S38D/Y97W/L102W
0.30 0.55 0.41,S25M/L30W/S103F
2.25 2.47 2.67,K24C/N35G/K36C
nd nd nd,S28H/Y31H/V39T
1.62 1.42 1.34,Y31T/S33P/S38G
3.09 2.58 5.07,Y31S/R34K/S38Y
4.09 3.97 nd,S28Q/Q96I/R99V
nd nd nd,Y31T/A40F
nd nd nd,A57K/Q96L/R99V
3.16 2.65 2.65,S26I/S33A/V39L
nd nd 4.14,S28C/S33Y/S103R
0.48 0.67 0.59,Q96E/R99S
nd nd nd,N35F/V39Y/H98F
4.87 3.97 4.98,Y97A/L100Q/S103N
nd 3.69 nd,N37K/R60F/Q96D
nd nd nd,S25E/Q95N/Q96D

The closing 5 entries, repeated:

{"changes": "Q96E/R99S", "log10 Kd (nM) by replicate": "0.48 0.67 0.59"}
{"changes": "N35F/V39Y/H98F", "log10 Kd (nM) by replicate": "nd nd nd"}
{"changes": "Y97A/L100Q/S103N", "log10 Kd (nM) by replicate": "4.87 3.97 4.98"}
{"changes": "N37K/R60F/Q96D", "log10 Kd (nM) by replicate": "nd 3.69 nd"}
{"changes": "S25E/Q95N/Q96D", "log10 Kd (nM) by replicate": "nd nd nd"}

Parent in this assay: reference entry 0.65, copy in this library 1.68.